From ChEMBL document CHEMBL1128263, “N-(1-methyl-5-indolyl)-N'-(3-methyl-5-isothiazolyl)urea: a novel, high-affinity 5-HT2B receptor antagonist” (J Med Chem, 1995)

Amino acid sequences for entries named in this document (tags omitted).
UniProt P35462, whole entry: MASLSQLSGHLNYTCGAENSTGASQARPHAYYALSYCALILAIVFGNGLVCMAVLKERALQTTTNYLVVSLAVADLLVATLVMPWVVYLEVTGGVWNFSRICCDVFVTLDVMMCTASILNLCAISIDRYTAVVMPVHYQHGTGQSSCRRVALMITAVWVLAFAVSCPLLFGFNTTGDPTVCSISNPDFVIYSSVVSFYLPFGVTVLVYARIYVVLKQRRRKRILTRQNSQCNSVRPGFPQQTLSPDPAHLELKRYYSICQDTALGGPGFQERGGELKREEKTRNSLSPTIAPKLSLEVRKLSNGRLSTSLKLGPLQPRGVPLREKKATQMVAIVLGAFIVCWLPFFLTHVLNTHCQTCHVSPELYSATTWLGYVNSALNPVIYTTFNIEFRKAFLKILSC

Biological target: D(3) dopamine receptor (Homo sapiens, UniProt P35462)
Assay: The binding affinity (pKi) measured against Dopamine receptor D3 (cloned human receptors in CHO cells) using [125I]iodosulpiride as radioligand
Format: cell-based

Cc1cc(NC(=O)Nc2ccc3c(ccn3C)c2)sn1
Ki: > 31.6 µM
